Literature values, collected in US9155776B2, “Low frequency glatiramer acetate therapy” (Yeda Research & Development Co., Ltd., priority 2009, dated 2015).

Tested on: patients receiving GA
Settings: cited from earlier work

## L-glutamic acid polymer with L-alanine, L-lysine, L-tyrosine, acetate (salt) [GA]
Clinical trials
  safety data accumulated in clinical trials: safe and well tolerated
Controlled studies, placebo injections 37%
  proportion of patients reporting injection-site reactions at least once: 70%
